Measured values taken from PubChem BioAssay AID1508591.
Some of these compounds have results that are not shown, active ones among them.

Conditions: rat; liver microsomes; pH 7.4; 15.0 min; 1.0 µM

With O=C(C1CCC1)N1CCN(C/C=C/c2ccccc2)CC1 the half-life was 14 min.
